Test results reported in patent publication US8067603B2 (priority 2003, dated 2011).
Some compounds may have been tested in ways that are not shown here.

Protein sequences, listed by entry. Tags and fused reporters are not part of them.
UniProt P41146, whole entry: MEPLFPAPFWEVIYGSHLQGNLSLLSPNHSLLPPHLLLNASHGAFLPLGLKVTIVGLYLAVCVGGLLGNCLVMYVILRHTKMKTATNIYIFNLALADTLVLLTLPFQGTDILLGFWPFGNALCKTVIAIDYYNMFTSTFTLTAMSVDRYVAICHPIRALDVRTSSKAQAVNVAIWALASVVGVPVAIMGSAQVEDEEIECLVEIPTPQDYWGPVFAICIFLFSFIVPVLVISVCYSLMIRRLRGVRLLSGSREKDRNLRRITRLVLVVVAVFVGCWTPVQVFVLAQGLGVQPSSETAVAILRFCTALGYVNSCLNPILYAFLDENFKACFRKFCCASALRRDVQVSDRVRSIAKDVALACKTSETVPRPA
UniProt P35372, whole entry: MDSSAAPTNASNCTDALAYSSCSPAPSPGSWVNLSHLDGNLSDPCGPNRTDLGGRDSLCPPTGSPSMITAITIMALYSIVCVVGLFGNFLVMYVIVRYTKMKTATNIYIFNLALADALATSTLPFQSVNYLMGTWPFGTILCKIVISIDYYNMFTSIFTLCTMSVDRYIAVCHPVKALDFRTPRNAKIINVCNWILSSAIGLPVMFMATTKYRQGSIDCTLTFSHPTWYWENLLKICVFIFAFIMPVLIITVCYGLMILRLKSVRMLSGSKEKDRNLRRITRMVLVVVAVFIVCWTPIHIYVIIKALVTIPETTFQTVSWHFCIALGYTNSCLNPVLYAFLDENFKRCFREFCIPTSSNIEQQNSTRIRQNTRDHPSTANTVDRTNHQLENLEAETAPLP
UniProt P35370, whole entry: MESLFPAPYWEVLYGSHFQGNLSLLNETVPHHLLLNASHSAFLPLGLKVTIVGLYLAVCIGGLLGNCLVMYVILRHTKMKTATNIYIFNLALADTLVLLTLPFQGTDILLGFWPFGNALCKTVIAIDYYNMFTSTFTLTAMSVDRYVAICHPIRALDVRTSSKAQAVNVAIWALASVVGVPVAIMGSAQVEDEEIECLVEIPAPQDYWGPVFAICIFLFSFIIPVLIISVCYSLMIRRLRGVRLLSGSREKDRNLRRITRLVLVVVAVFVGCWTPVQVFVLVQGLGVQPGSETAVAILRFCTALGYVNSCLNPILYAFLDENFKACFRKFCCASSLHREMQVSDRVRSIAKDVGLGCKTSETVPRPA

How the values were obtained:
ORL1 receptor [1] = molecular target: T1, ORL1 receptor (Homo sapiens, UniProt P41146); test: Affinity for human ORL1 receptors, [3H]-nociceptin binding, CHO-cell membranes; settings: membranes of CHO-cells expressing human ORL1
Protocol: Affinity of the compounds for human ORL1 receptors was determined using the in vitro receptor binding assay described by Ardati et al., Mol. Pharmacol., 51, 816, 1997. Briefly, membrane preparations were obtained from CHO-cells in which the human ORL1 receptor was stably expressed. Membranes were incubated with [^3H]-nociceptin in the absence or presence of test compound in different concentrations, diluted in a suitable buffer. Non specific binding was defined as binding remaining in the presence of 10^−6 M nociceptin. Separation of bound radioactivity from free was done by filtration through Packard GF/B glass fiber filters with several washings with ice-cold buffer using a Packard cell harvester. Bound radioactivity was measured with a scintillation counter (Topcount, Packard) using a liquid scintillation cocktail (Microscint 0, Packard). Measured radioactivity was plotted against the concentration of the displacing test compound and displacement curves were calculated by four-parameter logistic regression, resulting in IC50 values, i.e. that concentration of test compound by which 50% of the radioligand is displaced.

human μ-opiate receptor = human μ-opiate receptor (Homo sapiens, UniProt P35372); test: Affinity for human μ-opiate receptors, [3H]-naloxone binding, CHO-cell membranes; settings: membranes of CHO-cells expressing human μ-opiate receptor
Protocol: Affinity of the compounds for μ-opiate receptors was determined using the in vitro receptor binding assay described by Childers et al, Eur. J. Pharm 55, 11, 1979. Briefly, membrane preparations were obtained from CHO-cells in which the human μ-opiate receptor was stably expressed, and were incubated with the [^3H]-naloxone in the absence or presence of test-compounds in a concentration range from 10 μM down to 0.1 nM, diluted in a suitable buffer. Non specific binding was defined as binding remaining in the presence of 10^−7 M levallorphan tartrate.

ORL1 receptor [2] = molecular target: T1, ORL1 receptor; test: In vitro ORL1 receptor agonism, cAMP assay
Protocol: Activation of the G protein-coupled ORL1 receptor inhibits adenylate cyclase activity and reduces the intracellular concentration of the second messager cAMP. Using the assay as described by Jenck et al., Proc. Natl. Acad. Sci. USA, 97, 4938-4943, 2000, the activity of the compounds on ORL1 receptors was measured.

Male Wistar rats = test: ORL1 agonist and morphine induced effects on food intake; type: in vivo; settings: agonist 6 mg/kg
ORL1 receptor [3] = molecular target: ORL1 receptor (Rattus norvegicus, UniProt P35370); test: In vivo ORL1 agonism: Conditioned Ultrasonic Distress Vocalisation (CUDV)
rats = test: ORL1 agonist induced decrease in blood pressure; settings: anaesthetized rats

SMILES	affinity ORL1 pKi (ORL1 receptor [1])	affinity μ-opi pKi (human μ-opiate receptor)	In vitro agonism cAMP assay pEC50 (ORL1 receptor [2])	further results
O=c1[nH]c2ccccc2n1C1CCN([C@@H]2CC[C@H]3CCCc4cccc2c43)CC1	7.5	6.6	8.7	
O=c1[nH]c2cccc(F)c2n1C1CCN(C2CCC3CCCc4cccc2c43)CC1 (centres unmarked)	7.8			
O=c1[nH]c2cc(F)ccc2n1C1CCN(C2CCC3CCCc4cccc2c43)CC1 (centres unmarked)	8.4	6.4		
O=c1[nH]c2ccccc2n1C1CCN(C2CCC3CCCc4cccc2c43)CC1 (centres unmarked)	8.4	7.0	9.6	Intake, antagonism by J-113397 (Male Wistar rats; J-113397 0 mg/kg): 1.25 ± 0.39 g; Intake, antagonism by J-113397 (Male Wistar rats; J-113397 3 mg/kg): 0.15 ± 0.08 g; Intake, antagonism by J-113397 (Male Wistar rats; J-113397 10 mg/kg): 0.08 ± 0.002 g; Intake, antagonism by J-113397 (Male Wistar rats; J-113397 30 mg/kg): 0.07 ± 0.002 g; Intake, antagonism by Naloxone (Male Wistar rats; naloxone 0 mg/kg): 1.02 ± 0.30 g; Intake, antagonism by Naloxone (Male Wistar rats; naloxone 0.3 mg/kg): 0.51 ± 0.16 g; Intake, antagonism by Naloxone (Male Wistar rats; naloxone 1 mg/kg): 0.74 ± 0.27 g; Intake, antagonism by Naloxone (Male Wistar rats; naloxone 3 mg/kg): 0.78 ± 0.23 g; CUDV ED50 i.p. (ORL1 receptor [3]; intraperitoneal): 0.2 mg/kg; CUDV ED50 p.o. (ORL1 receptor [3]; per os (oral)): 0.9 mg/kg; ED80 (dose producing 20% reduction in blood pressure), +2 mg/kg naloxone (rats; i.v., 2 mg/kg naloxone 10 min before): 0.334 mg/kg; ED80 (dose producing 20% reduction in blood pressure when compared to control values), Compound alone (rats; increasing i.v. doses, compound alone): 0.356 mg/kg
O=c1[nH]c2ccc(F)cc2n1C1CCN(C2CCC3CCCc4cccc2c43)CC1 (centres unmarked)	8.2	6.9	9.2	
O=c1[nH]c2ccc(Cl)cc2n1C1CCN(C2CCC3CCCc4cccc2c43)CC1 (centres unmarked)	8.1	6.6	7.1	
O=c1[nH]c2ccc(OC(F)(F)F)cc2n1C1CCN(C2CCC3CCCc4cccc2c43)CC1 (centres unmarked)	7.5			
O=c1[nH]c2ccc(F)c(F)c2n1C1CCN(C2CCC3CCCc4cccc2c43)CC1 (centres unmarked)	7.4	<6.0		
COc1ccc2[nH]c(=O)n(C3CCN(C4CCC5CCCc6cccc4c65)CC3)c2c1 (centres unmarked)	7.3			
O=c1[nH]c2ccc(C(F)(F)F)cc2n1C1CCN(C2CCC3CCCc4cccc2c43)CC1 (centres unmarked)	7.3	<6.0		
Cc1cccc2c1[nH]c(=O)n2C1CCN(C2CCC3CCCc4cccc2c43)CC1 (centres unmarked)	8.6	7.5		
O=c1[nH]c2ccccc2n1C1CCN([C@H]2CC[C@@H]3CCCc4cccc2c43)CC1	8.8	7.5	9.8	
